One compound from patent publication US7612082B2, “Prostaglandin EP4 antagonists” (Allergan, Inc., priority 2004, dated 2009) can be followed below.

By UniProt entry, the sequences of proteins in these tests, tags left out. Where a name states a change or a piece, a line headed by the entry shows the natural chain unless it says otherwise.
UniProt P43116: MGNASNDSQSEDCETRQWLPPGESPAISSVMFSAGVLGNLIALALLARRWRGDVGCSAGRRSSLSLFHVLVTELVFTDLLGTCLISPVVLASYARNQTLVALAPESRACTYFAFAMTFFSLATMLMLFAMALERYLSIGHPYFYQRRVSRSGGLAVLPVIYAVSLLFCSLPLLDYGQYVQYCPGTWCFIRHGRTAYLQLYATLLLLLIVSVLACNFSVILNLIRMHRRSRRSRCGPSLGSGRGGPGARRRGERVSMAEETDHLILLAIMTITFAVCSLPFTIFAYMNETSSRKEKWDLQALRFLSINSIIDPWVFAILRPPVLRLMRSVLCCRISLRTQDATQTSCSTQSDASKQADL

The target in the assay is T1, hEP2 (Homo sapiens, UniProt P43116).
T1 construct: expressed in transfected cells; host or cells: HEK (by analogy HEK-293(EBNA))
As to the kind of experiment: Calcium signal (FLIPR) assay, hEP2 (HEK). It is filed as cell-based. The conditions noted are these: agonist potency, cells coexpress chimeric Gqs5, read-out: Standard agonist hEP2 (HEK). The procedure:
Cells were then washed twice with HBSS-HEPES buffer (Hanks Balanced Salt Solution without bicarbonate and phenol red, 20 mM HEPES, pH 7.4) using a Denley Cellwash plate washer (Labsystems; Franklin, Mass.). After 45-60 min of dye-loading in the dark using the calcium-sensitive dye Fluo-4 AM, at a final concentration of 2 μM, plates were washed four times with HBSS-HEPES buffer to remove excess dye and leaving 100 μl buffer in each well. Plates were then placed into a FLIPR™ instrument and were allowed to equilibrate at 37° C. Drug solution was added in a 50 μl volume to each well to give the desired final concentration. Cells were excited with an Argon laser at 488 nm, and emission was measured through a 510-570 nm bandwidth emission filter (FLIPR™, Molecular Devices, Sunnyvale, Calif.). The peak increase in fluorescence intensity was recorded for each well. […] A similar analysis was carried out for the other prostaglandin receptors, and for compound 2.

The structures appear in SMILES notation.

For `CCCCC[C@H](O)/C=C/[C@H]1[C@H](O)CC(=O)[C@@H]1C/C=C\CCCC(=O)O` [PGE2, Prostaglandin E2, reference compound], the EC50 is 2.5 nM.
